# Measured affinities in a library of Ab-14 light chain variants

Target: peptide PDVDLGDISGINAS, taken from heptad repeat 2 (HR2) of SARS-CoV-2 spike.

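Phage display of a naive human antibody library on the peptide gave the parent. These sequences belong to a second round, designed from the earlier measurements on random variants of the parent. Several design methods are mixed in this list. The assay is AlphaSeq: two haploid yeast populations carry antibody and antigen on their surface. Mating (16 h, 30 °C) was followed by selection of diploids and sequencing of their barcodes. Read counts were normalised to the haploid input and turned into Kd by a linear fit to BCL2-family pairs of known affinity, for each replicate. Mating was done six times.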

Ab-14 is the parent antibody, in scFv form: VH, then the linker GGGGSGGGGSGGGGS, then VL. The heavy chain is unchanged in all variants.
VH: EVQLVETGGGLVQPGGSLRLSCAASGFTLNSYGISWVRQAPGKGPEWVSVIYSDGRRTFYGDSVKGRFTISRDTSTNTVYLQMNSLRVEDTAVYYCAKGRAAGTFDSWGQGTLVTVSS
VL: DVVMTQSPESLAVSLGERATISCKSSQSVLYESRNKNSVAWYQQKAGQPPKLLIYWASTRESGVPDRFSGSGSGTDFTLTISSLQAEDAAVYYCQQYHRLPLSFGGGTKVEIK

The parent's light chain CDRs are KSSQSVLYESRNKNSVA, WASTRES, QQYHRLPLS; each variant's own CDRs replace them letter for letter. This list holds designs with at most six substitutions. The read-out is the apparent dissociation constant on a log10 scale (nM): the lower, the stronger. Averages over replicates are reported, and they cover detected replicates only. An entry "no signal" has no value in the source: the pair was not observed among the diploids in any replicate. This suggests poor binding but is not conclusive. The parent sequence was in this pool as ten entries: three were never detected, three once, and four in most replicates, with averages from 0.34 to 2.37.

The variant KLRQSTLLESRNKNSVA | WASTRES | QQYHVLPLS gave 1.79 (6 of 6 replicates). With KLTNSTLYESRQKNSVA | WASTRES | QQYHRLPLS the result was 0.89 (6 of 6 replicates). The variant KSSQSWLYESRNKNSVA | GASRRES | QQYHRLPLS gave 0.10 (6 of 6 replicates). For KSSQSFLMESDNKNSVA | YASTRES | QQYHRLPLS, the assay gave 1.11 (6 of 6 replicates). For KVSQSWLYESRNKNSVA | NASQRMS | QQYHRLPLS, the assay gave -0.09 (6 of 6 replicates).

The variant KVLQSVVYEDRNKNSVA | HASTRED | QQYHRLPLS gave -0.51 (6 of 6 replicates). For KVSQSMLYEQRNKNSVA | SASTREN | QSYHRLPLS, the assay gave -0.13 (6 of 6 replicates). The variant KDSQSVLYESRNKNSVA | WASMRES | QQYHRLPLS showed 2.33 (1 of 6 replicates). The variant KSSQSVLYESRNKNSVA | WASTRES | QQYHRTPLS showed no signal (0 of 6 replicates). The variant KSSQSPLYESRNKNSVA | WASTRES | QQVHRLPLS gave no signal (0 of 6 replicates).

For KSSCSGLYESRNKNSVA | EASTRES | QQYHRLPLS, the assay gave 0.75 (6 of 6 replicates). The variant KSPFSVYYGDRNKNSVA | EASTRES | QQYHRLPLS showed 0.39 (6 of 6 replicates). With KLPQSELYESRNKNSVA | NASTREQ | QQYHRLPLS the result was -0.40 (6 of 6 replicates). For KLSQSVCYESRNKNSVA | EASTRES | QQYHRLPLS, the assay gave -0.19 (6 of 6 replicates). For KSSQSVLYESRNCNSVA | WASTRSS | QQYHRLPLS, the assay gave 1.18 (6 of 6 replicates).

For KVSQSVLYEQRNKNSVA | WASTRES | QQYHRLPLS, the assay gave 1.22 (6 of 6 replicates). For KSSQVVLYESRNKNSVA | GASTRES | QQYHRLPLS, the assay gave 0.67 (6 of 6 replicates). The variant KLSQSVLYQSRNKNSVA | NASQRES | QQYHRLPLS showed -0.33 (6 of 6 replicates). The variant KVSQSVLMESRNANSVA | DASTRES | QQYHRLPLS gave 0.45 (6 of 6 replicates). With KSSISLLYESRNTNSVA | EASTRES | QQYHRLPLS the result was 0.79 (6 of 6 replicates).

With KSSQSVLAEQLNKNSVA | WGSTRES | QQYHTLPLS the result was 0.53 (6 of 6 replicates). The variant KSSQSVLYESRNPNSVA | EASTRES | QHYHRLPLS showed 0.70 (6 of 6 replicates). The variant IAFQSWLYESRNKNSVA | GASTRES | QQYHRLPLI gave 1.73 (6 of 6 replicates). The variant KVSQSVLYESRNKNSVA | EGSTRES | QQYHRLPLS gave 0.63 (6 of 6 replicates). The variant KSPQGVLYESRNKNSVA | GASQRWS | QQYHRLPLS showed 0.25 (6 of 6 replicates).

With KSSQSVWYESREKNSVA | WASTRES | QQPHRHPLS the result was no signal (0 of 6 replicates). For KSSQSVLNESRNKNSVA | NASTRES | QQYHVLPLS, the assay gave 0.04 (6 of 6 replicates). For KSSQSDLYESRNKNSVA | WASTREE | QQYQRLPLS, the assay gave 1.64 (6 of 6 replicates). The variant KLYQSGLYESRNKNSVA | SASTRES | QQYFRLPLS gave 0.11 (6 of 6 replicates). With KSSQGVEYESRNKNSVA | WASTRES | QQYHRLPLS the result was 2.11 (6 of 6 replicates).

With KSSQSVLYLSRNKNSVA | WASTREK | QQYTRLPLS the result was no signal (0 of 6 replicates). The variant KLSQSDLYESRAKNSVA | NASTRES | QQYHRLPLS showed -0.16 (6 of 6 replicates). The variant KVSQSVLYESRLKNSVA | DASTRCS | QQYHRLPLS gave 0.32 (6 of 6 replicates). With KLSQAVWYESRNKNSVA | EASLRES | QQYHRLPLS the result was 0.14 (6 of 6 replicates). For HASPSVAYESRNKNSVA | NASTREQ | QQYHRLPLS, the assay gave -0.16 (6 of 6 replicates).

The variant KSSNSVLYESRNKNSVA | HASTRES | FQYHRLPLS showed 1.35 (6 of 6 replicates). The variant KFSQSWLYESRNKNSVA | GASTREV | QQYHRLPLS showed -0.16 (6 of 6 replicates). For KSSQSYYYESRNKNSVA | GASTRES | QQYHRLPLS, the assay gave 0.40 (6 of 6 replicates). With KLSQGVLYESRNKNSVA | NASTRES | QQYHRLPLS the result was -0.44 (6 of 6 replicates). The variant KSSQSDLYESRNKNSVA | SATTREV | QQYHRPPLS showed no signal (0 of 6 replicates).

With KSSISYLSESRNFNSVA | EASTREQ | QQYHRLPLS the result was 0.09 (6 of 6 replicates). For KLSGSVLNESRNKNSVA | WASVRES | QQYHRLPLS, the assay gave 1.38 (6 of 6 replicates). For KLPQSMLYESRNKNSVA | NASQRLS | QQYHRLPLS, the assay gave -0.06 (6 of 6 replicates). The variant KLSQSVLYDSQNKNSVA | WASTRES | QQYHRLPLS showed 0.09 (6 of 6 replicates). For KSSESVAQESRNKNSVA | PASQRES | QQYHRLPLS, the assay gave no signal (0 of 6 replicates).

With KVSQSVLYEDRMKNSVA | NASQRES | QQYHRLPLS the result was 0.28 (6 of 6 replicates). The variant KSSQSVSYEMRNKNSVA | GASTRES | QQYARLPLS showed 1.60 (5 of 6 replicates). The variant KSSQSVLYESRNKNSVA | NASCRES | QQYHRLPLK showed 1.51 (5 of 6 replicates).

The range of this assay differs from that of the first round, and the authors advise against merging the two. Three control strains display no target. For all light chain designs, 4% of the pairings with them gave a signal, with a median of 2.64 and one signal in twenty below 1.59, so weak values seen in few replicates may be background. The authors averaged sequences with at least three values out of six and counted those with two or fewer as poor binders.

Values reported by Li et al. 2023, doi:10.1038/s41467-023-39022-2 (FLAb copy).